From patent publication US11878970B2, “Allosteric chromenone inhibitors of phosphoinositide 3-kinase (PI3K) for the treatment of disease” (Petra Pharma Corporation, priority 2021, dated 2024)
pIC50: −log10 of the molar value.

Chains of the proteins cited; added tags and fusions are not shown. Lines headed by an entry give the natural chain unless they say otherwise; changes in a name come on top.
UniProt P42336, whole entry: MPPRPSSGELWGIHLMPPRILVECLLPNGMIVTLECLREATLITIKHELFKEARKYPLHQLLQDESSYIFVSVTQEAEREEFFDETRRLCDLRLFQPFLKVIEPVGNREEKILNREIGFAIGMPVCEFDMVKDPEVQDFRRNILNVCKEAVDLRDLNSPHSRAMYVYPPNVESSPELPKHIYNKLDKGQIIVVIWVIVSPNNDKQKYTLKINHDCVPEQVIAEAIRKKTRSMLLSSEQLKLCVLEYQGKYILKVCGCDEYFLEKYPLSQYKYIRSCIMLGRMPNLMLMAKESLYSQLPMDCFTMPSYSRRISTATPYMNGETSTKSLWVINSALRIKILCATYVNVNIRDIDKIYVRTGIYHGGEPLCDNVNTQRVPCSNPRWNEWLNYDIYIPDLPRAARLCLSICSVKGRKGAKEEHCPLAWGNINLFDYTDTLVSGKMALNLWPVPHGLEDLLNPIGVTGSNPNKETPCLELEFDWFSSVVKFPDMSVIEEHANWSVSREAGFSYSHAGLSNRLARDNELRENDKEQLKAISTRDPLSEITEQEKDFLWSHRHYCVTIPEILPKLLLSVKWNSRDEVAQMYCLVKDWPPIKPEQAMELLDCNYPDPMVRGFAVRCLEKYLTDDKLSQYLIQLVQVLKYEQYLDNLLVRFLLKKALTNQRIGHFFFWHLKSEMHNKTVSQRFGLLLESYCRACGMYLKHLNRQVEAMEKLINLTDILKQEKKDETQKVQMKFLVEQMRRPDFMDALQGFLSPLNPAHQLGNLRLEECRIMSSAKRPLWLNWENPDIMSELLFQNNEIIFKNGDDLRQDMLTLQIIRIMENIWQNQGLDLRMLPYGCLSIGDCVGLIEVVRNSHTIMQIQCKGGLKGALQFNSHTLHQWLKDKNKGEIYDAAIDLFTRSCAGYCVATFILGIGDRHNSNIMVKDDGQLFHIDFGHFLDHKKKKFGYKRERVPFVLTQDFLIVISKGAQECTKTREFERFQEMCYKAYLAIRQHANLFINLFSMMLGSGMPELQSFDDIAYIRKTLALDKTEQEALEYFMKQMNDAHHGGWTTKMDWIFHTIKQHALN
UniProt P42336, whole entry H1047R: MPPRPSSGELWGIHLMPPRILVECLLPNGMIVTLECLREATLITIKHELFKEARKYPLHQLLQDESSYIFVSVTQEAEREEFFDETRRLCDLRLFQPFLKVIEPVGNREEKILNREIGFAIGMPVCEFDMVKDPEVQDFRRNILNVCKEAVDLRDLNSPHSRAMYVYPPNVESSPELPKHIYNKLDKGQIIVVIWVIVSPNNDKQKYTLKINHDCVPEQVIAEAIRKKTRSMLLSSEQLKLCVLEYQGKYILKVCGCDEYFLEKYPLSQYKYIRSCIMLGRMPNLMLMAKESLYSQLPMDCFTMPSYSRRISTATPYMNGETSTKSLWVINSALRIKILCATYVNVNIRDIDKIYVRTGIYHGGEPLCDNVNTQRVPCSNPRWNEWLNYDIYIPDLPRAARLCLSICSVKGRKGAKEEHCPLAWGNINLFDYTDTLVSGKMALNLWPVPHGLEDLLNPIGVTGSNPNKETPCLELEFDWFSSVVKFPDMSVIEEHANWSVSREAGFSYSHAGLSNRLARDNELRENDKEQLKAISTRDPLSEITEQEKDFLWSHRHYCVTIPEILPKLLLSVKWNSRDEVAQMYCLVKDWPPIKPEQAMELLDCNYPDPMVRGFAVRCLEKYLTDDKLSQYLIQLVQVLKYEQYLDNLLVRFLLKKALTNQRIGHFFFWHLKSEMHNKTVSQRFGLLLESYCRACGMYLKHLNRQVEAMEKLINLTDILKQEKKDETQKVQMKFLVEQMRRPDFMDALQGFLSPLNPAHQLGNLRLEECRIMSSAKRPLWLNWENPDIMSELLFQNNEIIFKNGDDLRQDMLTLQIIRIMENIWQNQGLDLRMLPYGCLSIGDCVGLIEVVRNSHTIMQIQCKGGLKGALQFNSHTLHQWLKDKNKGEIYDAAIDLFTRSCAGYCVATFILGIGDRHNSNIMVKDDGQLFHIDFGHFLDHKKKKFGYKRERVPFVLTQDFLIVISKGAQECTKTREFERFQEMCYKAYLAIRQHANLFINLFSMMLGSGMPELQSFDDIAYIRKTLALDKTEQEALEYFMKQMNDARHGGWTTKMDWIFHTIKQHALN
UniProt P27986, whole entry partner: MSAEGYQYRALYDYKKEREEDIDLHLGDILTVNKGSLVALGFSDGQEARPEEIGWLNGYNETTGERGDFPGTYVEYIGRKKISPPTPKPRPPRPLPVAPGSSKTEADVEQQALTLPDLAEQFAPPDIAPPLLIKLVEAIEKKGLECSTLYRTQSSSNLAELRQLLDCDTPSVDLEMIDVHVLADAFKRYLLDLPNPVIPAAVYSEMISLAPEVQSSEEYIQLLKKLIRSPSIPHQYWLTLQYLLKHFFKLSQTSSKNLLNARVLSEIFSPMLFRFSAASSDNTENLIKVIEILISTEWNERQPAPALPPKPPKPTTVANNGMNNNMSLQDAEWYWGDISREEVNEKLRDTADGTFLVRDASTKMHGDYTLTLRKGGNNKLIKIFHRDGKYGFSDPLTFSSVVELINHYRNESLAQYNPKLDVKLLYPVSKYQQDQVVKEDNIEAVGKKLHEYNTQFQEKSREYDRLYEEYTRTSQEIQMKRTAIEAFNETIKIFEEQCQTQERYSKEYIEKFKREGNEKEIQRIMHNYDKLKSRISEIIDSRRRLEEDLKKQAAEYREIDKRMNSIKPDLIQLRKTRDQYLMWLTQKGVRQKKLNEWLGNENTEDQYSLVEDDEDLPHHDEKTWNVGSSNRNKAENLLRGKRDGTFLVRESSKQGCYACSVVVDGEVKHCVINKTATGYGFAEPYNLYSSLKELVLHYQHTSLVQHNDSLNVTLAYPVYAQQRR

Legend:
[1] = target: PI3K-α (PIK3CA) wild-type (WT), p110α/p85α complex (Homo sapiens, UniProt P42336); assay: PI3K-alpha kinase (PIK3CA) biochemical activity, ADP-Glo, wild-type; settings: read-out: IC50 WT, Soy PI lipid substrate, tested form: TFA
Text: (§1) PI3K-Alpha Kinase (PIK3CA) Activity, Wild-Type and H1047R Mutant and Determining IC50 Values for Inhibitors
(§2) Recombinant, catalytically active human full length PIK3KA Wild-type and H1047R mutant were purchased as 1:1 complex of N-terminal 6×his tagged p110α (catalytic) and untagged p85α (regulatory subunit) from EMD Millipore Sigma (cat. no. 14-602M and 14-792M, respectively). PIP2diC8 (Avanti Polar Lipids Inc., cat. no. 850185) or Soy PI (Avanti Polar Lipids Inc., cat. No. 840044P) was used as lipid substrate. PIP2diC8 or PI lyophilized powder was dissolved in milliQ water to a concentration of 1 mM just before use. 10 mM stock compounds in DMSO were serially diluted 1:3 to generate a 10-point curve and plated using an acoustic liquid handler system (Echo 550 series instrument, Labcyte). […] Then, 10 uL of Kinase Detection Reagent (ADP-Glo Kinase assay kit, Promega cat. no. V9102) was added to simultaneously convert ADP to ATP and allow the newly synthesized ATP to be measured using a luciferase/luciferin reaction. After 30 min at room temperature the light generated was measured using a luminometer (EnVision plate reader, Perkin Elmer). […] Relative IC50 values are determined using luminescence units by calculating percent inhibition with respect to on-plate “MIN” and “MAX” controls. […]

[2] = target: PI3K-α (PIK3CA) H1047R mutant, p110α/p85α complex (Homo sapiens, UniProt P42336, H1047R); assay: PI3K-alpha kinase (PIK3CA) biochemical activity, ADP-Glo, H1047R mutant; settings: read-out: IC50 H1047R, Soy PI lipid substrate, tested form: TFA
Text: as §1, §2

Cc1cc(C(C)Nc2ccccc2C(=O)O)c2oc(-c3cnc4cn(C)nc4c3)cc(=O)c2c1 (centres unmarked)
pIC50 [1]: 5.00 to 5.30 | pIC50 [2]: 5.30 to 6.00
